# Values quoted from earlier work in PMC5933782, “Molecular structures of cdc2-like kinases in complex with a new inhibitor chemotype” (PLoS ONE, 2018).
# Molecular target: DYRK1A
# Parameters: method as in PMID 19837585
# Details: kinase binding assay; cited from earlier work
compound,measurement,value
CCN1/C(=C/C(C)=O)Sc2ccc(OC)cc21 [TG003],Kd,12 nM
